Laboratory results published in PubChem BioAssay AID651572 (The Scripps Research Institute Molecular Screening Center, 2012).
Only a part is listed here, and it is no random draw. Some salts or complexes appear as unconnected parts, following the source record. Activity calls are given as the source filed them.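 How the source made its calls: active means inhibition above a per-plate limit, mean inhibition of low control wells plus 3 SD (cut at about 25% in these data); inactive means the rest.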

Amino acid sequences for entries named in this document (tags omitted). Residues count along the entry.
UniProt Q62848, 1-136 limits assumed: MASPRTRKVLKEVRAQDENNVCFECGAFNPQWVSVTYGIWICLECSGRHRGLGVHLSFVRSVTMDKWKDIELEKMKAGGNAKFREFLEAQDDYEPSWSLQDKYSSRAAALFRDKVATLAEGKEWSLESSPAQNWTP

Target: ADP-ribosylation factor GTPase-activating protein 1 (Rattus norvegicus) (UniProt Q62848)
Test: inhibitors of rat ARFGAP1 GAP activity, primary screen, biochemical, fluorescence polarization, GDP tracer (AID 651572)
Details: Arfgap1-stimulated ARF1 GTP hydrolysis, GDP FP detection; at 16.5 µM; stronger effect = higher value
Method in brief: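 Replicates: Single well per compound | Assay system: Truncated rat Arfgap1 GAP domain | Control set: No-Arfgap1 wells (100%) versus DMSO full-reaction wells (0%) | Times: Enzyme reaction 120 min at 25 °C after 20 min preincubation | Reagent: Human ARF1(Δ1-17)-GTP substrate | Measured by: Tracer-displacement fluorescence polarization with EDTA stop, 620/688 nm | Measure: Percent inhibition of Arfgap1-stimulated GTP hydrolysis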

SMILES | inhibition
COc1ccc(NP(C)(=O)Oc2ccccc2OC)cc1 (stereo not drawn) | inactive: -2.14%
Cc1c([N+](=O)[O-])cc([N+](=O)[O-])c(Br)c1[N+](=O)[O-] | inactive: 4.48%
CCN(CC)CCCOC(=O)C(O)(c1ccccc1)C1CCCCC1 (stereo not drawn) | inactive: 5.2%
CP(=O)(Nc1ccccc1)Oc1ccc(F)cc1 (stereo not drawn) | inactive: 6.12%
O=[N+]([O-])c1cc([N+](=O)[O-])c(OC2CCCCC2O)c([N+](=O)[O-])c1 (stereo not drawn) | inactive: 3.38%
CCCCCOc1ccc(NP(C)(=O)Oc2ccc(Cl)cc2Cl)cc1 (stereo not drawn) | inactive: 8.14%
CCN(CC)CCCNc1ccccc1[N+](=O)[O-].O=[N+]([O-])c1cc([N+](=O)[O-])c(O)c([N+](=O)[O-])c1 | inactive: 4.13%
CCOC(=O)c1ccc(NP(C)(=O)Oc2ccc(F)cc2)cc1 (stereo not drawn) | inactive: -7.78%
COc1ccc(OP(C)(=O)Nc2ccc(SC(F)(F)F)cc2)cc1 (stereo not drawn) | inactive: 1.06%
O=C(OC1CN2CCC1CC2)c1ccc([N+](=O)[O-])cc1 (stereo not drawn) | inactive: 2.63%
O=C(OCCN1CCN(CCOCc2ccccc2)CC1)C(O)(c1ccccc1)c1ccccc1 | inactive: -11%
COc1ccc2c(c1O)-c1c(O)c(OC)cc3c1[C@H](C2)[N+](C)(C)CC3.O=[N+]([O-])c1cc([N+](=O)[O-])c([O-])c([N+](=O)[O-])c1[O-] | inactive: 3.13%
O=[N+]([O-])c1cc([N+](=O)[O-])c(Nc2ccc(Cl)cc2)c([N+](=O)[O-])c1 | inactive: -19.2%
CP(=O)(Nc1ccccc1F)Oc1ccccc1 (stereo not drawn) | inactive: -3.24%
CC(C)c1ccc(OP(C)(=O)Nc2ccc(SC(F)(F)F)cc2)cc1 (stereo not drawn) | inactive: 5.07%
O=[N+]([O-])c1cc([N+](=O)[O-])c(Nc2ccccn2)c([N+](=O)[O-])c1 | inactive: -3.11%
Cc1c(NP(C)(=O)Oc2ccc(C(C)C)cc2)c(=O)n(-c2ccccc2)n1C (stereo not drawn) | inactive: -3.17%
CP(=O)(Nc1ccccn1)Oc1ccccc1 (stereo not drawn) | inactive: -1.82%
COc1ccccc1OP(C)(=O)Nc1ccc(C)cc1C (stereo not drawn) | inactive: 13.3%
CCc1ccc(OP(C)(=O)O)cc1 | inactive: -1.47%
COc1ccccc1OP(C)(=O)Nc1ccc(Br)cc1 (stereo not drawn) | inactive: -6.75%
COc1ccc(OP(C)(=O)Nc2ccccn2)cc1 (stereo not drawn) | inactive: 0.73%

SMILES | inhibition
CN(C)CCOC(=O)C(O)(c1ccccc1)C1CCCC1 (stereo not drawn) | inactive: -1.23%
CP(=O)(OCCOc1ccccc1)OCCOc1ccccc1 | inactive: 3.93%
CP(=O)(Nc1ccc(Cl)cc1Cl)Oc1ccccc1 (stereo not drawn) | inactive: 6.2%
CCCCCCCCCCCCCCCC1C[N+](C)(C)CCOP(C)(=O)O1 (stereo not drawn) | inactive: -16.8%
O=C1C(O)=C([N+](=O)[O-])C(=O)C(O)=C1[N+](=O)[O-] | inactive: -1.78%
Cc1cc(C)cc(OP(C)(=O)Nc2cccc(C(F)(F)F)c2)c1 (stereo not drawn) | inactive: 0.31%
COc1ccccc1OP(C)(=O)Nc1ccc(C)c(C)c1 (stereo not drawn) | inactive: -2.69%
COc1ccc(OP(C)(=O)Nc2ccccc2Br)cc1 (stereo not drawn) | inactive: 6.43%
Nc1ccc2c(ccc3cccnc32)n1.O=[N+]([O-])c1cc([N+](=O)[O-])c(O)c([N+](=O)[O-])c1 | inactive: 8.72%
CCOC(=O)c1ccc(NP(C)(=O)Oc2ccc(Cl)cc2)cc1 (stereo not drawn) | inactive: 3.94%
CP(=O)(OC12CC3CC(CC(C3)C1)C2)OC12CC3CC(CC(C3)C1)C2 | inactive: -12.4%
CC(C)(C)c1ccc(OP(C)(=O)O)cc1 | inactive: -1.54%
COc1ccccc1OP(C)(=O)Nc1ccccc1Br (stereo not drawn) | inactive: 2.54%
CP(=O)(Nc1ccc(Cl)cc1)Oc1ccc(F)cc1 (stereo not drawn) | inactive: 0.58%
CN(C)C(=O)c1c([N+](=O)[O-])cc([N+](=O)[O-])cc1[N+](=O)[O-] | inactive: 2.4%
CCN(CC)CC(O)COC(=O)C(O)(c1ccccc1)C1CCCCC1 (stereo not drawn) | inactive: 6.84%
COc1ccc(OP(C)(=O)Nc2ccc(Br)cc2)cc1 (stereo not drawn) | inactive: 13.6%
COc1ccccc1OP(C)(=O)Nc1c(C)n(C)n(-c2ccccc2)c1=O (stereo not drawn) | inactive: -9.73%
O=C(OCCCN1CCCC1)C(O)(c1ccccc1)C1CCCCC1 (stereo not drawn) | inactive: -9.94%
CP(=O)(Oc1ccccc1)N1CCOC1=O (stereo not drawn) | inactive: -7.77%
CCc1ccc(OP(C)(=O)Nc2cccnc2)cc1 (stereo not drawn) | inactive: 1.42%
